Results on 2 compounds are retold here after ChEMBL document CHEMBL1125727 (J Med Chem, 1991).

Structures are written as SMILES.

A word on the IC50: it is the concentration that inhibits the measured activity by half.

One assay concerns UV4. Description: Hypersensitivity factor obtained from in vitro cytotoxicities against Chinese hamster ovary derived AA8 / UV4 cell lines.
Another assay relates to CHO-AA8. Description: Compound was evaluated for in vitro cytotoxicities against Chinese hamster ovary derived AA8 cell lines.
In assay [1] the test system is P388. Description: In vitro cytotoxicity against murine leukemia P388 cell line. The format is functional, cell-based, Mus musculus. The method in brief: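 P388 cells kept in exponential growth in RPMI 1640 with 10% fetal calf serum. Log-phase cultures in 96-well plates with drug present throughout 72 h growth. Final density read by a modified MTT method. IC50 is the nominal concentration reducing cell density to 50% of control, with eight controls per plate.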

In assay [2] the test system is P388. Description: Percentage increase in lifespan of drug-related tumor bearing animals when heated at the optimal dose and tested in murine leukemia P388 cell lines.
Assay [3] relates to P388. Description: Optimal dose administered as a single dose by intraperitoneal inoculation of 10 X E6 murine leukemia P388 cell lines.

As for `Cc1ccc(N(CCCl)CCCl)cc1`, the half-maximal inhibitory concentration (IC50) with UV4 was found to be 42 µM; in the assay with CHO-AA8, 2.9 µM; in the assay on P388 [1], 0.63 µM; with P388 [2], 36 µM; with P388 [3] it was 65 µM.
In the case of `CSc1ccc(N(CCCl)CCCl)cc1`, the IC50 in the assay on UV4 amounted to 33 µM; in the assay with P388 [3], 65 µM.
